Each block holds one molecule with its values, some of them ahead of it.
Legend:
[1] = target: human CB1 receptor (Homo sapiens, UniProt P21554); assay: Radioligand displacement in human CB1 receptor-transfected cells (HEK-293)
[2] = target: CB1 receptor (Rattus norvegicus, UniProt P20272); assay: Radioligand displacement in whole rat brain (CB1) membrane preparations
[3] = target: cannabinoid receptors (Mus musculus, UniProt P47746); assay: Mouse vas deferens tissue assay (WIN55212-2 as agonist); details: isolated mouse vas deferens; in the absence of WIN55212-2
[4] = whole rat brain membranes, radioligand 3H-CP55940, Tables 1 and 2
[5] = whole rat brain, 3H-CP55940, Table 4, parallel synthesis analogs, n = 1

Chains of the proteins cited; added tags and fusions are not shown.
UniProt P21554, whole entry: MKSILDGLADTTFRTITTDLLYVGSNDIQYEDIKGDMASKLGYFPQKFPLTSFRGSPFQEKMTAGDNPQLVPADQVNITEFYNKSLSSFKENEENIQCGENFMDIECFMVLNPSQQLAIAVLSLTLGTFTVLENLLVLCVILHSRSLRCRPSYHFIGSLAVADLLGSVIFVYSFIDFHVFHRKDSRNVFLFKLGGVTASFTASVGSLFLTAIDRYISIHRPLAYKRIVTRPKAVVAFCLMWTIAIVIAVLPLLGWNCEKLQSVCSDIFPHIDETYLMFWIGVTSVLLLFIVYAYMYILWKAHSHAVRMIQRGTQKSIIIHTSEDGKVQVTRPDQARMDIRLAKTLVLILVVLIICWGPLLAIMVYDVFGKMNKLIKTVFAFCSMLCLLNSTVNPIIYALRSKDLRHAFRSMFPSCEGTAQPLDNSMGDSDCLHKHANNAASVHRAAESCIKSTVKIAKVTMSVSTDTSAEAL
UniProt P20272, whole entry: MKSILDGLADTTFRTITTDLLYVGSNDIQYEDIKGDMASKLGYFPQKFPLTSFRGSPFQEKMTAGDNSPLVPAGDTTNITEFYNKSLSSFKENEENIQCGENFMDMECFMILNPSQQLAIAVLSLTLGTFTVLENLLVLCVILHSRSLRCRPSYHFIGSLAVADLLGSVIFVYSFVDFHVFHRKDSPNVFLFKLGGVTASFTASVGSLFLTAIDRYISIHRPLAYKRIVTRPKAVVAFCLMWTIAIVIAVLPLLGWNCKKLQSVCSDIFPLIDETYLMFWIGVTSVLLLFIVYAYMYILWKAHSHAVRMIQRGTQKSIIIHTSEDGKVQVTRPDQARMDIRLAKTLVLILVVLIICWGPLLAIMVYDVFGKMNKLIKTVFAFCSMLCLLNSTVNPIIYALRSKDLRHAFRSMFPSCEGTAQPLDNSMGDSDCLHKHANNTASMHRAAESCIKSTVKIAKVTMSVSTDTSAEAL
UniProt P47746, whole entry: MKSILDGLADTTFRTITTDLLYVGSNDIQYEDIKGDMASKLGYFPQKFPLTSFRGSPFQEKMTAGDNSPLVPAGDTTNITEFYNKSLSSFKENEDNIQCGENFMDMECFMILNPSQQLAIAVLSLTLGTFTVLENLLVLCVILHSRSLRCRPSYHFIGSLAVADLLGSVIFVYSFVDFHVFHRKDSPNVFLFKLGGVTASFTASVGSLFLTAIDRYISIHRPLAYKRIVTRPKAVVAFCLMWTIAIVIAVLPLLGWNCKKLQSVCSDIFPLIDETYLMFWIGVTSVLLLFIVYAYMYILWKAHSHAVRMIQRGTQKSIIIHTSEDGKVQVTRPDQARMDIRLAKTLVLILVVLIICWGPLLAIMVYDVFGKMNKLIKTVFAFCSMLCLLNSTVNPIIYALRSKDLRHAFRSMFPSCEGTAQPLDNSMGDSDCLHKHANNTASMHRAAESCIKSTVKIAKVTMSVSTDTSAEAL

SMILES: CCCCCCC(C)(C)NC(=O)c1nn(-c2ccc(Cl)cc2Cl)c(-c2ccc(Cl)cc2)c1C
Max. Disp. %, 3H-CP55940 [1]: 91.1%

SMILES: Cc1c(C(=O)NC(C)Cc2ccc(Cl)cc2)nn(-c2ccc(Cl)cc2Cl)c1-c1ccc(Cl)cc1 (stereo not shown) [AKS-10262-10]
Max. Disp. %, 3H-CP55940 [2, 5]: 88.8%

SMILES: Cc1c(C(=O)NN2CCCCC2)nn(-c2ccc(Cl)cc2Cl)c1-c1ccc(Cl)cc1 [SR141716A, reference compound]
Max. Disp. %, 3H-CP55940 [2, 4]: 86.6%
Max. Disp. %, 3H-SR141716A ([2]; whole rat brain membranes, radioligand 3H-SR141716A, Tables 1 and 2): 96.5%
Max. Disp. %, 3H-CP55940 [2, 5]: 86.6%
Max. Disp. %, 3H-SR141716A ([2]; whole rat brain, 3H-SR141716A, Table 4, parallel synthesis analogs, n = 1): 96.5%
% Inverse Effect [3]: 65.2%

Next, values leading:

Max. Disp. %, 3H-CP55940 [2, 4]: 88.1%
SMILES: Cc1c(C(=O)NC(C)CO)nn(-c2ccc(Cl)cc2Cl)c1-c1ccc(Cl)cc1 (single isomer, unassigned) [MF9725-105-38]

Ki ([1]; Ki, displacement of 3H-WIN55212-2, human CB1 transfected cells, radioligand 3H-WIN55212-2, Table 3): 25.1 nM
SMILES: CCCNC(=O)c1nn(-c2ccc(Cl)cc2Cl)c(-c2ccc(Cl)cc2)c1C [MF9725-55C]

Ki ([2]; read-out: Ki, displacement of 3H-SR141716A, whole rat brain membranes, radioligand 3H-SR141716A, Tables 1 and 2): 143 nM
SMILES: Cc1c(C(=O)NCCCCO)nn(-c2ccc(Cl)cc2Cl)c1-c1ccc(Cl)cc1 [MF9725-95-31]

Reference: patent US6825209B2 (dated 2004)
